Experimental findings from PubChem BioAssay AID429 (Emory University Molecular Libraries Screening Center, 2006) are described below.

Each structure is given as a SMILES string. The entries are a selection whose mix differs from that of the whole data set. Calls of active or inactive are those of the source.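 Rule for the calls: active = inhibition above 50%; inactive = the rest.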

For the test, the target named is Heat shock protein HSP 90-alpha (Homo sapiens) (UniProt P07900). Description: tumor Hsp90 inhibitors, primary screen, cell lysate, fluorescence polarization, NCI-N417 lysate (AID 429).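 Note: 0% = tracer plus lysate wells and 100% = tracer alone without lysate.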 The conditions noted are these: NCI-N417 lysate Hsp90, Cy3B-geldanamycin FP displacement; at 30 µM; active compounds read high. For orientation: Fluorescence polarisation rises when a labelled molecule tumbles more slowly, as on binding a larger partner.
`COc1ccc(NC2CCN(CCc3ccccc3)CC2)c(OC)c1`: the inhibition is inactive: -1.09%.
`O=C(OC1CN2CCC1CC2)C1c2ccccc2Oc2ccccc21` (configuration not stated): the inhibition is inactive: -2.98%.
`N#CC1(Nc2ccccc2)CCN(CCc2ccccc2)CC1`: the inhibition was inactive: -4.86%.
On to `N/C(=N\O)c1c(N)no[n+]1[O-]`, for which the inhibition was inactive: -3.03%.
In the case of `CCC(CO)(C(=O)OC1CN2CCC1CC2)c1ccccc1` (configuration not stated), the inhibition is inactive: -0.59%.
In the case of `CCOc1ncccc1C(=O)NCC1(N2CCOCC2)CCCCC1`, the inhibition is inactive: -3.64%.
The figure for `Fc1ccccc1NC1CCN(Cc2ccccc2)CC1` is inactive: -0.91%.
